Experimental data as given in PMC7470127, “Design, synthesis, and evaluation of 1, 4-benzodioxan-substituted chalcones as selective and reversible inhibitors of human monoamine oxidase B” (Journal of Enzyme Inhibition and Medicinal Chemistry, 2020).

The chains behind the UniProt entries cited, without tags or fusion partners.
UniProt P27338, whole entry: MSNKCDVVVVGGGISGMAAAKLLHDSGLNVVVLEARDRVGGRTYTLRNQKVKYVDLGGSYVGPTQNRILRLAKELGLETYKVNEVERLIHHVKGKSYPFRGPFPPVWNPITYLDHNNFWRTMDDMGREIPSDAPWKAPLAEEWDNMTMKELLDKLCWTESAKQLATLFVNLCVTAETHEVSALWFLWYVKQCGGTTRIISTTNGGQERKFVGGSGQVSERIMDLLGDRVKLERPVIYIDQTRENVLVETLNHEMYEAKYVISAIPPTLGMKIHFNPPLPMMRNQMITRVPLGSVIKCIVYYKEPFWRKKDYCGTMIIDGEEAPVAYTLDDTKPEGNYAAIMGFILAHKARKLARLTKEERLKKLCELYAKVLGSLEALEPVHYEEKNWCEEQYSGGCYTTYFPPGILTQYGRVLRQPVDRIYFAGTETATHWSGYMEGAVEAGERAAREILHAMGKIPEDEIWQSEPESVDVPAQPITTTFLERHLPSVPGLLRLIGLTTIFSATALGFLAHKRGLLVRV

Target: hMAO-B (Homo sapiens, UniProt P27338)
Assay: hMAO inhibition assay (Amplex Red fluorescence), hMAO-B, benzylamine substrate

inhibition at 10 µM (read-out: hMAO-B Inhibition (%)) [%]	Compound	Selectivity Index (SI)
41.6	O=C(C=Cc1ccccc1)c1ccccc1 [Compound 1, 1,3-diphenyl-2-propen-1-one]	>3
	O=C(/C=C/c1ccc2c(c1)OCCO2)c1ccc(F)c(Br)c1 [Compound 22, (E)-1-(3-bromo-4-fluorophenyl)-3-(2,3-dihydrobenzo[b][1,4]dioxin-6-yl)prop-2-en-1-one]	>1538
